The target of experiment [1] is Tyrosine-protein kinase JAK2 (Homo sapiens, UniProt O60674). Kind of experiment: Inhibition of JAK2 (unknown origin).
Experiment [2] concerns the target T1, Tyrosine-protein kinase JAK1 (Homo sapiens, UniProt P23458). Briefly: Inhibition of JAK1 (unknown origin) using 1 mM of ATP and Tyr6 peptide by Z'-LYTE kinase assay.
Experiment [3] concerns the target T1, Tyrosine-protein kinase JAK1. Briefly: Inhibition of JAK1 (unknown origin) using 87 uM of ATP and Tyr6 peptide by Z'-LYTE kinase assay. In outline:
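Pyridone-6, a pan-JAK inhibitor, served as positive control. IC50 given as mean ± SD of three independent experiments.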

Protein sequences, listed by entry. Tags and fused reporters are not part of them. Lines headed by an entry give the natural chain unless they say otherwise; changes in a name come on top.
UniProt O60674: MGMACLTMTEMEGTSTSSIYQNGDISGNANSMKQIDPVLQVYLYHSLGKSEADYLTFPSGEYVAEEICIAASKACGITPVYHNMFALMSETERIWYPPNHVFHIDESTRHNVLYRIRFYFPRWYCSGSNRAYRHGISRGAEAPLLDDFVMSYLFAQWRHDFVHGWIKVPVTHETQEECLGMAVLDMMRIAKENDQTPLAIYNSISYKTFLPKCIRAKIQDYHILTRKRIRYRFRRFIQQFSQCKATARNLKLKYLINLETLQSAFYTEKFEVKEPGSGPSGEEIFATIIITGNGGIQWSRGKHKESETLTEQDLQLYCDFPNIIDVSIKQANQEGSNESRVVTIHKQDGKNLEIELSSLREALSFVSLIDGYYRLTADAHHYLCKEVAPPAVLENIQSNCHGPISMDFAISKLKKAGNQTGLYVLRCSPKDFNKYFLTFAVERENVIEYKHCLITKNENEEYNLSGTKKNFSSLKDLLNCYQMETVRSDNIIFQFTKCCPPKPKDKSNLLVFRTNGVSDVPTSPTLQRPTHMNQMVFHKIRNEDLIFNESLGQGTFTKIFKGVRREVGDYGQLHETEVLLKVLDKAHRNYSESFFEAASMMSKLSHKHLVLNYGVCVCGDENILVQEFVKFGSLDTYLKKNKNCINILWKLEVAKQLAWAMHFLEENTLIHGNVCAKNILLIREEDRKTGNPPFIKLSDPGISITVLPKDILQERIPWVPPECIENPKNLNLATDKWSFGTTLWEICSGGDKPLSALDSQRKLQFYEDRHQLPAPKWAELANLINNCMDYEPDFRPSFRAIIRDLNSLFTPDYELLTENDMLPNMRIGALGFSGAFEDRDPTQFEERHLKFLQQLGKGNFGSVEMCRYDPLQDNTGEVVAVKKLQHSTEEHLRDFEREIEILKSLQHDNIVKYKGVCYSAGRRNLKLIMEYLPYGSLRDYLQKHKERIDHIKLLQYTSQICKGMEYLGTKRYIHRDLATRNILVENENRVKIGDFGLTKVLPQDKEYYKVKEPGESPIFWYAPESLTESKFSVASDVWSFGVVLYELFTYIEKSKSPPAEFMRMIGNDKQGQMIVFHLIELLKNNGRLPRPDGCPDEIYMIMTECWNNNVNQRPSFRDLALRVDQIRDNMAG
UniProt P23458: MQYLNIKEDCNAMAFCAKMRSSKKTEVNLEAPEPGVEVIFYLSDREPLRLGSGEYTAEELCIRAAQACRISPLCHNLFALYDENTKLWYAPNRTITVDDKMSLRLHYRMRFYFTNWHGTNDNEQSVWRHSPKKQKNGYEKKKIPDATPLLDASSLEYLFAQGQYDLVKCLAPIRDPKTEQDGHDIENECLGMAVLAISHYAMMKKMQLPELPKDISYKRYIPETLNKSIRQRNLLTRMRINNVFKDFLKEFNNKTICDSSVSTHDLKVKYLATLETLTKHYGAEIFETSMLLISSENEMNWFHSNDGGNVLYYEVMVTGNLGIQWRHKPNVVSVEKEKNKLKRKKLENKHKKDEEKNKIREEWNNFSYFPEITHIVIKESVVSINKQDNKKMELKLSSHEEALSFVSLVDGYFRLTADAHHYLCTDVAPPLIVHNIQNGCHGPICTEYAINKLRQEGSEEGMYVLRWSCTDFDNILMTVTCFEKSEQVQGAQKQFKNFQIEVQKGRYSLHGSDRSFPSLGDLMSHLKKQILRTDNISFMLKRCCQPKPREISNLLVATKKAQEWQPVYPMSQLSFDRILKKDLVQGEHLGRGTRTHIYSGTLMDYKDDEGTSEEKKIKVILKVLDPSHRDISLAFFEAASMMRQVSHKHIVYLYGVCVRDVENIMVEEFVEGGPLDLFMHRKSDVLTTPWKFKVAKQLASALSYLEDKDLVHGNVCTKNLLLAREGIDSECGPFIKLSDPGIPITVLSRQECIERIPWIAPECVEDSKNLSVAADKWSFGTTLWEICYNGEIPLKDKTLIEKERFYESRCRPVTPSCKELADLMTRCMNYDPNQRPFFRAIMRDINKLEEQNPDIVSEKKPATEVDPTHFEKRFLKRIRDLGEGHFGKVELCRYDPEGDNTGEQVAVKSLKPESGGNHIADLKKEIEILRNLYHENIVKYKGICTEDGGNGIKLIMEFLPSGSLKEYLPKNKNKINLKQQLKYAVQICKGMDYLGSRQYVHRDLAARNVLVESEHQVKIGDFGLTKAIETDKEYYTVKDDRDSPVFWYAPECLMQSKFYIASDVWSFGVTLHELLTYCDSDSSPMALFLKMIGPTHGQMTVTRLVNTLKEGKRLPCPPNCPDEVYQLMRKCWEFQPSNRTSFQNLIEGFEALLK

Molecules are shown by their SMILES.

Take `CCS(=O)(=O)N1CC(CC#N)(n2cc(-c3ncnc4[nH]ccc34)cn2)C1` [BARICITINIB]: the IC50 in experiment [1] turned out to be 6 nM.
With `CC(C)(C)c1nc2c3ccc(F)cc3c3c(=O)[nH]ccc3c2[nH]1`, the 50% inhibitory concentration (IC50) was 600 nM in experiment [2] and 4 nM in experiment [3].

In general, IC50 refers to the concentration that gives 50% inhibition. Read a low IC50 as greater potency.
